The source of these data is BindingDB's records for patent US9862688 (Dana-Farber Cancer Institute, 2018).

Sequences of proteins named here, by UniProt entry; tags and fusion partners are left off. A change or cut given only in a name is not applied to a line headed by its entry.
UniProt O60674: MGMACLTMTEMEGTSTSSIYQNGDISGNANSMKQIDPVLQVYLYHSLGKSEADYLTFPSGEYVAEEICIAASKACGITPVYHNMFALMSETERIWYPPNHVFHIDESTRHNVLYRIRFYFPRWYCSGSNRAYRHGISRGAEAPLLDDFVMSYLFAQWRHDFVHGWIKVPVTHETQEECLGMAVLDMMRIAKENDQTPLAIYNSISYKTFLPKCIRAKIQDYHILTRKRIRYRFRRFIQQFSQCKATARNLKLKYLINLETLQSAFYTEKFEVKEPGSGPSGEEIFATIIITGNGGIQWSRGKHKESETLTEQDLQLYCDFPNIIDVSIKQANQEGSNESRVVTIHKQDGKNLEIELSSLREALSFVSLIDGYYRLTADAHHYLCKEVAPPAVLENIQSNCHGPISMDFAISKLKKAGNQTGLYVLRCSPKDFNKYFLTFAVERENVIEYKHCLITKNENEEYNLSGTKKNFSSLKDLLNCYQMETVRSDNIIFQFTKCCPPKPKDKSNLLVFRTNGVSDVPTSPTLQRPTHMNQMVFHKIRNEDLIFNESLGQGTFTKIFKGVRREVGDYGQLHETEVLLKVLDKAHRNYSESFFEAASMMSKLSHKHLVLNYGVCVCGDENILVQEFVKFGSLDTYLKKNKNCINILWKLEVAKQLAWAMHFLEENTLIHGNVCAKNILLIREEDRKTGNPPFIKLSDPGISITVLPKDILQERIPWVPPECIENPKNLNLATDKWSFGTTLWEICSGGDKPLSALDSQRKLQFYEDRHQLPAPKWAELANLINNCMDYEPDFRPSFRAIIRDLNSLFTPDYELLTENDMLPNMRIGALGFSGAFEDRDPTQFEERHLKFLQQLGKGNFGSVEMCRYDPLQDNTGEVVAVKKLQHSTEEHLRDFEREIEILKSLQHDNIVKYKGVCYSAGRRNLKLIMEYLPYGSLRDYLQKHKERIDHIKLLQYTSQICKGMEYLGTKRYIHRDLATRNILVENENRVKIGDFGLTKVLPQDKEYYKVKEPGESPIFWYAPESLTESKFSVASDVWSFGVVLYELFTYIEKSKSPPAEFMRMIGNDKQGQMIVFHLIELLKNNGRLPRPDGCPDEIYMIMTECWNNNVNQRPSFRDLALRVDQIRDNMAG
UniProt P00519, whole entry: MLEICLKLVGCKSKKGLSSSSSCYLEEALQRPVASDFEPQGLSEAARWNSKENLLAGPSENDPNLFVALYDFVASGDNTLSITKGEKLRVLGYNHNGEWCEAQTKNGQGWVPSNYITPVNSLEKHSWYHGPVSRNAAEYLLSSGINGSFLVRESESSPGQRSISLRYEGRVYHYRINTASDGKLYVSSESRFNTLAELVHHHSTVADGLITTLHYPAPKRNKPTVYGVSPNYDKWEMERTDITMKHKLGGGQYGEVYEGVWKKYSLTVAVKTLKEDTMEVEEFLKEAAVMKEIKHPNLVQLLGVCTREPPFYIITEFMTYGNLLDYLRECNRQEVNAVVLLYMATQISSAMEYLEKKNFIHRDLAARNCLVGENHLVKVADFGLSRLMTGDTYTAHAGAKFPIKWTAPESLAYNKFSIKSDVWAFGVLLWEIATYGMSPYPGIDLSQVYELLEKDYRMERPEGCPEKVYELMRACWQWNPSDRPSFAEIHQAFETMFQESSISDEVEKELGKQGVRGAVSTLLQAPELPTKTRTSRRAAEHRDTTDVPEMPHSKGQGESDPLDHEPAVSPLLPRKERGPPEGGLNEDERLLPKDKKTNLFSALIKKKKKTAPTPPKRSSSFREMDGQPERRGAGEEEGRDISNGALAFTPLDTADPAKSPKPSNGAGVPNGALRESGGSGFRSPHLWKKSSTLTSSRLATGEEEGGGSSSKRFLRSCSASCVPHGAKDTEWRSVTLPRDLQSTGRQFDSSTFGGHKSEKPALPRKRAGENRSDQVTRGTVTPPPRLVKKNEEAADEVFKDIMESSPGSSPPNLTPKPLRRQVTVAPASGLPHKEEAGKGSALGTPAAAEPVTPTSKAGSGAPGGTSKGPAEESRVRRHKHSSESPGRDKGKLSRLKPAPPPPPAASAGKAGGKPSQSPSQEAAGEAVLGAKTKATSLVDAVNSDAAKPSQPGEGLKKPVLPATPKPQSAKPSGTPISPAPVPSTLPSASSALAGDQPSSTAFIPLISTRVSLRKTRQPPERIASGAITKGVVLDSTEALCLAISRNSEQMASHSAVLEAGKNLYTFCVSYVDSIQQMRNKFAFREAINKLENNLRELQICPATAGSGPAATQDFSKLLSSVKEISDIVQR

Molecules are shown by their SMILES.

What all share (assay): In Vitro Activity Assay
Experiment [1] has as its target T1, Tyrosine-protein kinase JAK3 (Homo sapiens, UniProt P52333).
T1 sequence (P52333 whole entry): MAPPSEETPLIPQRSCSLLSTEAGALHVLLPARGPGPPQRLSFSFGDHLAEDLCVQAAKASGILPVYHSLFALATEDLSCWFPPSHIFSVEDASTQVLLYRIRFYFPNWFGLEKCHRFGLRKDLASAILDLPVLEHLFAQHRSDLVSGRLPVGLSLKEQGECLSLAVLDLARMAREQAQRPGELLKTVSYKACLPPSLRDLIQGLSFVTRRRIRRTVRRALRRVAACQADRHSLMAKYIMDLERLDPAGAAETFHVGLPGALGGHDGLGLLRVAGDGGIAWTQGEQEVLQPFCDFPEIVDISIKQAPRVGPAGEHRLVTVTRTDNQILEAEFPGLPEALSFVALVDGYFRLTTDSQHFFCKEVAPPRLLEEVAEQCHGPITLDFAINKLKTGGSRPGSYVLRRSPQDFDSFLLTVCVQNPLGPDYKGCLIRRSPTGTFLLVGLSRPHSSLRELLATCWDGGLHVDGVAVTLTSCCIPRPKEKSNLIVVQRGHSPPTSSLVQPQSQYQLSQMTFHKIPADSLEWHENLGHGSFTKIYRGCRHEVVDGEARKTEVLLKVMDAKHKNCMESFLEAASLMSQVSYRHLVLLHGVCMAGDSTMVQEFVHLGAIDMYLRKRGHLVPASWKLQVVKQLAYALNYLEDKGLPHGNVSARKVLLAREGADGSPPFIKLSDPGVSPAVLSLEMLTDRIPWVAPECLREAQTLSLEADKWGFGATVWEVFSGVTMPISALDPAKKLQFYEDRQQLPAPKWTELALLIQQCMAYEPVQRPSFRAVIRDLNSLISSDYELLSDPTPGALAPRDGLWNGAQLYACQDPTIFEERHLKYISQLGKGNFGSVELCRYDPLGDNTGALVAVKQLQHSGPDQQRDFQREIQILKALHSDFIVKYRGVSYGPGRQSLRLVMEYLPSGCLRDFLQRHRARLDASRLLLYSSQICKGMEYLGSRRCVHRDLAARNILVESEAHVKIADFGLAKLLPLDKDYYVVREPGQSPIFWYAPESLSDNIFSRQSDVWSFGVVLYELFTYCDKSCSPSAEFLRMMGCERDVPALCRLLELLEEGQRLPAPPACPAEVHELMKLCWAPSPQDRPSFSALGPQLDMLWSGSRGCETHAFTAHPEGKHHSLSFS
From the text:
(§1) The in vitro activity of the compounds described herein in inhibiting JAK3 and other kinases were obtained using an INVITROGEN Select Screening assay as known in the art.

In experiment [2] the target is Tyrosine-protein kinase JAK2 (Homo sapiens, UniProt O60674).
Excerpt: as §1

Experiment [3] concerns the target Tyrosine-protein kinase ABL1 (Homo sapiens, UniProt P00519).
Excerpt: as §1

Compound `C=CC(=O)Nc1cccc(CNc2nc(Nc3ccc(N4CCN(CCNC(=O)CC5[C@H]6C[C@@H]7C[C@@H](C[C@H]5C7)C6)CC4)cc3OC)ncc2Cl)c1` (some centres undefined) [US9862688, Compound 1] gave an IC50 in experiment [1] of 0.482 µM.

Consider `C=CC(=O)Nc1cccc(CNc2nc(Nc3ccc(N4CCN(CCCNC(=O)CC5[C@H]6C[C@@H]7C[C@@H](C[C@H]5C7)C6)CC4)cc3OC)ncc2Cl)c1` (some centres undefined) [US9862688, Compound 2], for which the IC50 in experiment [2] amounted to 3.11 µM.

As for `C=CC(=O)Nc1cccc(CNc2nc(Nc3cnn(CCN4CCN(C(=O)CC5[C@H]6C[C@@H]7C[C@@H](C[C@H]5C7)C6)CC4)c3)ncc2Cl)c1` (some centres undefined) [US9862688, Compound 5], the values for the IC50 in experiment [3] and in experiment [2] were 1.97 µM and 1.37 µM, respectively.

What is called IC50 is the concentration that gives 50% inhibition.
